The values below come from PubChem BioAssay AID923 (National Center for Advancing Translational Sciences (NCATS), 2007).

SMILES strings stand for the structures. Only a part is listed here, and it is no random draw. The source made the active and inactive calls. Calls come from the whole dose curve; as a rule, active = well fitted activation curve with a large enough effect; inconclusive = small, poorly fitted or top-dose-only effect; inactive = flat fitted curve, though single readings scatter.

A short description of this test: qHTS Assay for Allosteric/Competitive Inhibitors of Caspase-1: Spectroscopic Profiling in AFC Spectral Region. Note: 0% is about no effect. As to conditions: compound fluorescence, AFC spectral region (405/520 nm); at 57.5 µM (top of the series). In general terms: qHTS replaces the single test concentration by a dilution series.
As to `CN(CCCl)CCCl`, the fluorescence increase was inactive: 0.931%.

For `O=[N+]([O-])C(Cl)(Cl)Cl`, the fluorescence increase is inactive: 3.8%.
